Measured values: article PMC3942423 (Nature chemical biology, 2009)

Substrate: OC[C@H]1O[C@H](O[C@@H]2[C@H](O)[C@@H](O)O[C@H](CO)[C@H]2O)[C@@H](O)[C@@H](O)[C@@H]1O
Assay: purified protein, by the assay type
Details: other: most active mannobiose substrate; enzyme Bt3991; pH 7.0; 37.0 °C

B1: Bt3991 (Bacteroides thetaiotaomicron VPI-5482) (protein)
chain: MKLKTLLIGCFGGFIMLNSCTESPSVKDYSAYVNPFIGTGGHGHTFPGAVVPHGMIQPSPDTRIDGWDACSGYYYDDNTINGFSHTHVSGTGCCDYGDVLLMPTVGKPQYLTTDPESQKLAYASAFSHENETAEPGYYSVFLDTYQVKAEITATKRGAIHRYTFPESTESGFIIDLDYSLQRQTNYEMEIEVISDTEICGHKKTTYWAFDQYINFYAKFSKPFAYTLITDSVTMDNGKRLPVCKAVLHFNTKKDEEVLVKVGVSAVDIAGARKNVESEIPEWDFDKVRKDARTAWNNYLSKIDITTSDKEDKTIFYTALYHTAISPNLFTDADGRYLGMDLEVHQGDTINPLYTVFSLWDTFRALHPLMTIIDPNLNNQFINSLIRKHQEGGIYPMWDLASNYTGTMIGYHAVPVIVDAYMKGYRNFDAHEAYKASLRAAEYDTTGIKCPDLVLPHLMPKAKYYKNAIGYIPCDRENESVAKALEYAYDDWCISIFAEAMNDFENKAKYERFAKAYEFYFDKSTRFMRGLDSNGEWRTPFNPRASTHRSDDYCEGTAWQWTWFVPHDVEGLVKLMGGEDAFVEKLDSLFTVDSSLDGETTSADISGLIGQYAHGNEPSHHVIHLYNYVNRPWRTQELVDSVYRSQYANNVDGLSGNEDCGQMSAWYILNSMGFYQVCPGKPVYSIGRPAFDKAVINLPGEKTFSIVAKNNSKSNKYIESVLLNGKPLDTPFFGHQDIVAGGVMEIRMTDHPTQWGVRQ
kcat: 4.67 s⁻¹
kcat/Km: 517 M⁻¹ s⁻¹
